Assays:
[1] = biological target: T1, human OGF receptor (OGFr), native, in nuclear preparations of human cells and tissues (human, UniProt Q9NZT2 1-662, limits assumed); test: saturation binding, confluent PANC-1 cells
T1 construct: Native receptor in nuclear homogenates (placenta, PANC-1, MIA PaCa-2, Capan-1, BxPC-3, pancreatic tissue, head and neck tissue); also called zeta opioid receptor; receptor for OGF
T1 chain: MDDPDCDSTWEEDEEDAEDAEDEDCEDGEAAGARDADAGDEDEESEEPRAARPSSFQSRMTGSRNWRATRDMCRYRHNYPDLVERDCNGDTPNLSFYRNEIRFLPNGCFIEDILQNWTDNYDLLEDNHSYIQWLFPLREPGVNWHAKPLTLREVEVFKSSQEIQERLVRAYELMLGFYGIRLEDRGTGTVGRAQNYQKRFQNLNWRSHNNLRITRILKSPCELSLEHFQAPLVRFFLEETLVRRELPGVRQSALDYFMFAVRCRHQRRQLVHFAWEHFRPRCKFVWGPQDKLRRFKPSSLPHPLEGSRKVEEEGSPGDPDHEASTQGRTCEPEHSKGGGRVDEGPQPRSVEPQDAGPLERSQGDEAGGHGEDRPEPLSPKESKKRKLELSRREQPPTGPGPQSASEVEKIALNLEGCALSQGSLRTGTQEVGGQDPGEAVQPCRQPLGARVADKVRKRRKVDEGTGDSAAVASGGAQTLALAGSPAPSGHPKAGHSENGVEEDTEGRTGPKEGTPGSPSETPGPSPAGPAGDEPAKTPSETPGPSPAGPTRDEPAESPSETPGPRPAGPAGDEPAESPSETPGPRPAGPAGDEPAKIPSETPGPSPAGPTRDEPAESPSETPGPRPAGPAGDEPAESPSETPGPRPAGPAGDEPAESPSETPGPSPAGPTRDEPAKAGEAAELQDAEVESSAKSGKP

Chains of the proteins cited; added tags and fusions are not shown. Lines headed by an entry give the natural chain unless they say otherwise; changes in a name come on top.
UniProt P01210: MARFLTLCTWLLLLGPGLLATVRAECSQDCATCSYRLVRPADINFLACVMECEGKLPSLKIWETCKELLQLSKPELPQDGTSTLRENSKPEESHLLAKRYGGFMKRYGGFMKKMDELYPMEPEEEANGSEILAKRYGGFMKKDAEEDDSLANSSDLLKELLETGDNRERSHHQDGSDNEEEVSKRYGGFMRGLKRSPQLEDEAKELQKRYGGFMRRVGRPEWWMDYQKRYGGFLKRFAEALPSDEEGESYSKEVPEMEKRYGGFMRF

[2] = biological target: T1, human OGF receptor (OGFr), native, in …; test: saturation binding, PANC-1 cells in log phase
[3] = biological target: T1, human OGF receptor (OGFr), native, in …; test: saturation binding, post-confluent PANC-1 cells
[4] = biological target: T1, human OGF receptor (OGFr), native, in …; test: saturation binding, xenografts of Capan-1 grown in nude mice
[5] = biological target: T1, human OGF receptor (OGFr), native, in …; test: radioligand binding, nuclear preparations of normal human mucosa
[6] = biological target: T1, human OGF receptor (OGFr), native, in …; test: unlabeled peptide competing with [3H]-[Met5]-enkephalin, PANC-1 nuclear homogenates
[7] = biological target: T1, human OGF receptor (OGFr), native, in …; test: radioligand binding, nuclear preparations of human head and neck squamous cell carcinoma
[8] = biological target: T1, human OGF receptor (OGFr), native, in …; test: saturation binding, nuclear (P1) fraction of PANC-1 cells, subcellular fractionation study

B1: [Met^5]-enkephalin (opioid growth factor) (peptide, UniProt P01210 100-104, looked up)
peptide: YGGFM
modifications: tritium label ([^3H]) on the radioligand; the unlabeled peptide is used as competitor
notes: domain: [Met^5]-enkephalin; only the pentapeptide stood in the assay; also called OGF; [^3H]-[Met^5]-enkephalin
- Kd [1]: 5.3 nM
- Kd [2]: 4.2 nM
- Kd [3]: 13.1 nM
- Kd [4]: 2.9 nM
- Kd [5]: 11.6 nM
- IC50 [6]: 5.5 nM
- Kd [7]: 4.1 nM
- Kd [8]: 2.3 nM

From patent US20080050363A1 (published 2008)
